Data set [1] relates to MDA-MB-468. The data set can be described thus: Antiproliferative activity against human MDA-MB-468 cells assessed as inhibition of cell growth incubated for 144 hrs in presence of sulfopin. It counts as functional, cell-based.
The subject of data set [2] is MDA-MB-468. The data set can be described thus: Antiproliferative activity against human MDA-MB-468 cells assessed as inhibition of cell growth incubated for 144 hrs in presence of 1:18 of compound:sulfopin. The class given is functional, cell-based.
Data set [3] deals with MDA-MB-468. The data set can be described thus: Antiproliferative activity against human MDA-MB-468 cells assessed as inhibition of cell growth incubated for 144 hrs in presence of 4.5:1 of compound:sulfopin. It counts as functional, cell-based.
The test system of data set [4] is MDA-MB-468. Put plainly: Antiproliferative activity against human MDA-MB-468 cells assessed as inhibition of cell growth incubated for 144 hrs. The class given is functional, cell-based.
The subject of data set [5] is MDA-MB-468. Put plainly: Antiproliferative activity against human MDA-MB-468 cells assessed as inhibition of cell growth incubated for 144 hrs in presence of 1.5:1 of compound:sulfopin. The class given is functional, cell-based.
In data set [6] the test system is MDA-MB-468. Put plainly: Antiproliferative activity against human MDA-MB-468 cells assessed as inhibition of cell growth incubated for 144 hrs in presence of 1:2 of compound:sulfopin. It counts as functional, cell-based.
Data set [7] deals with MDA-MB-468. Put plainly: Antiproliferative activity against human MDA-MB-468 cells assessed as inhibition of cell growth incubated for 144 hrs in presence of 1:6 of compound:sulfopin. The class given is functional, cell-based.
Data set [8] deals with Peptidyl-prolyl cis-trans isomerase NIMA-interacting 1 (Homo sapiens, UniProt Q13526). The data set can be described thus: Binding affinity to GST-tagged PIN1 (unknown origin) assessed as dissociation constant by SPR analysis. (Surface plasmon resonance follows binding to a sensor surface in real time, without labels.)
The target of data set [9] is T1, Protein cereblon/Peptidyl-prolyl cis-trans isomerase NIMA-interacting 1 (Homo sapiens, UniProt Q13526+Q96SW2). Put plainly: PROTAC activity at CRBN/PIN1 in human MDA-MB-468 cells assessed as induction of PIN1 degradation by measuring maximal efficacy incubated for 24 hrs by high content analysis relative to control. It counts as cell-based.
A short description of data set [10]: Efflux ratio of permeability across basolateral to apical side over apical to basolateral side in MDCK cells incubated for 120 mins by LC-MS/MS analysis. It counts as ADME, cell-based, Canis lupus familiaris. The note with it: dog, 2 h.
Data set [11] relates to MDA-MB-468. The data set can be described thus: Antiproliferative activity against human MDA-MB-468 cells assessed as inhibition of cell growth incubated for 144 hrs in presence of 6:1 of compound:olaparib. The class given is functional, cell-based.
Data set [12] has as its system MDA-MB-468. Put plainly: Antiproliferative activity against human MDA-MB-468 cells assessed as inhibition of cell growth incubated for 144 hrs in presence of olaparib. It counts as functional, cell-based.
For data set [13], the system named is MDA-MB-468. The data set can be described thus: Antiproliferative activity against human MDA-MB-468 cells assessed as inhibition of cell growth incubated for 144 hrs in presence of 1:4.5 of compound:olaparib. The class given is functional, cell-based.
Data set [14] relates to MDA-MB-468. Put plainly: Antiproliferative activity against human MDA-MB-468 cells assessed as inhibition of cell growth incubated for 144 hrs in presence of 18:1 of compound:olaparib. The class given is functional, cell-based.
The subject of data set [15] is MDA-MB-468. The data set can be described thus: Antiproliferative activity against human MDA-MB-468 cells assessed as inhibition of cell growth incubated for 144 hrs in presence of 1:1.5 of compound:olaparib. It counts as functional, cell-based.
Data set [16] concerns MDA-MB-468. Put plainly: Antiproliferative activity against human MDA-MB-468 cells assessed as inhibition of cell growth incubated for 144 hrs in presence of 2:1 of compound:olaparib. The class given is functional, cell-based.
Data set [17] deals with T1, Protein cereblon/Peptidyl-prolyl cis-trans isomerase NIMA-interacting 1. The data set can be described thus: PROTAC activity at CRBN/PIN1 in human MDA-MB-468 cells assessed as induction of PIN1 degradation incubated for 24 hrs by Western blotting. It counts as cell-based. The settings on record: dose 0.001-1 µM. Background: Immunoblotting shows a protein as a band on a membrane.

Sequences of proteins named here, by UniProt entry; tags and fusion partners are left off. A change or cut given only in a name is not applied to a line headed by its entry.
UniProt Q13526, whole entry: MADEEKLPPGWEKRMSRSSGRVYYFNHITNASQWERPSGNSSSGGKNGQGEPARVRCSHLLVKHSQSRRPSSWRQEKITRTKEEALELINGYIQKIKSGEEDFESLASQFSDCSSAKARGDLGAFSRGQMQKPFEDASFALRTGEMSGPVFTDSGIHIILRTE
UniProt Q96SW2: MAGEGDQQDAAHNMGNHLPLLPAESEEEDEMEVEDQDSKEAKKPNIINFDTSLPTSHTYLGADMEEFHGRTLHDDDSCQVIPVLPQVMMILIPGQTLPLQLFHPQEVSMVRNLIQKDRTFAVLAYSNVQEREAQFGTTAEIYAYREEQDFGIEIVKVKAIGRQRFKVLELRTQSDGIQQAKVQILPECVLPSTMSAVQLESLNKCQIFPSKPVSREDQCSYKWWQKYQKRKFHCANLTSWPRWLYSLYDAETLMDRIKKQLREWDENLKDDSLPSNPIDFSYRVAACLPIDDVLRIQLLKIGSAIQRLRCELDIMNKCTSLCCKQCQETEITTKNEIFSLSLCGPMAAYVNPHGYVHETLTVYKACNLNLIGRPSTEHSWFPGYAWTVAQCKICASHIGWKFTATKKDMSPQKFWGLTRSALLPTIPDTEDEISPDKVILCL

Data set [18] shares this target. The data set can be described thus: PROTAC activity at CRBN/PIN1 in human MDA-MB-468 cells assessed as induction of PIN1 degradation at 0.001 to 1 uM incubated for 24 hrs in presence of sulfopin by Western blotting. The settings on record: dose 0.001-1 µM. It counts as cell-based.

Data on 13 molecules can be found in ChEMBL document CHEMBL5584361, “Re-Evaluating PIN1 as a Therapeutic Target in Oncology Using Neutral Inhibitors and PROTACs” (J Med Chem, 2024).

Activity calls are given as the source filed them. The calls are words filed in the database; no cut-off is given here.

With `O=C(c1cc(Cc2n[nH]c(=O)c3ccccc23)ccc1F)N1CCN(C(=O)C2CC2)CC1`, the Activity entry in [1] was “Dose-Dependent Effect”. In addition, the result in data set [2], in data set [3], in data set [4], in data set [5], in data set [6] and in data set [7] was Active.

Take `CNC(=O)C(Cc1cn(-c2ccc(C3CCN(C)CC3)cc2)nn1)NC(=O)C1(c2ccccc2)CC1` (configuration not stated): the outcome in data set [8] was inactive.

On to `Cc1cccnc1C1(C(=O)NC(Cc2cn(-c3ccc(-c4ccc(C#N)cc4)cc3)nn2)C(=O)NC2CCN(CCCOc3cccc4c3C(=O)N(C3CCC(=O)NC3=O)C4=O)CC2)CC1` (configuration not stated), for which the Emax (as a rule, the maximal effect, on the per cent scale that the assay sets) in data set [9] worked out at 91.8%.

For `CC(C)(C)NC(=O)C(Cc1cn(-c2ccc(-c3ccc(C#N)cc3)cc2)nn1)NC(=O)C1(c2ccccc2)CC1` (configuration not stated), the result in data set [8] was inactive.

`Cc1ccccc1C1(C(=O)NC(Cc2cn(-c3ccc(-c4ccc(C#N)cc4)cc3)nn2)C(=O)NC2CCN(C)CC2)CC1` (configuration not stated): the Ratio in [10] was 124.

For `CC(C)(C)CN(C(=O)CCl)C1CCS(=O)(=O)C1` (configuration not stated), the result in data set [11], in [13], in data set [4], in data set [14], in data set [15] and in data set [16] was Active. For the same molecule, the Activity result in data set [12] was “Dose-Dependent Effect”.

As for `Cc1cccnc1C1(C(=O)NC(Cc2cn(-c3ccc(-c4ccc(C#N)cc4)cc3)nn2)C(=O)NCCCCOc2cccc3c2C(=O)N(C2CCC(=O)NC2=O)C3=O)CC1` (configuration not stated), in data set [9], the Emax worked out at 84.1%.

On to `Cc1cccnc1C1(C(=O)NC(Cc2cn(-c3ccc(-c4ccc(C#N)cc4)cc3)nn2)C(=O)NC2CCN(CCCCCOc3cccc4c3C(=O)N(C3CCC(=O)NC3=O)C4=O)CC2)CC1` (configuration not stated), for which the Emax in data set [9] amounted to 92.5%. The Activity entry in [17] was “Dose-Dependent Effect”. Moreover, the outcome in data set [18] was inactive.

With `CNC(=O)C(Cc1cn(-c2ccc(-c3ccc(C#N)cc3)cc2)nn1)NC(=O)C1(c2ccccc2)CCCCC1` (configuration not stated), the result in data set [8] was inactive.

As for `CNC(=O)C(Cc1cn(-c2ccc(-c3ccc(C#N)cc3)cc2)nn1)NC(=O)Cc1ccccc1` (configuration not stated), the outcome in [8] was inactive.

For `CNC(=O)C(Cc1cn(-c2ccc(-c3ccc(C#N)cc3)cc2)nn1)NC(=O)C1(c2ccccc2)CCCC1` (configuration not stated), the outcome in data set [8] was inactive.

With `Cc1cccnc1C1(C(=O)NC(Cc2cn(-c3ccc(-c4ccc(C#N)cc4)cc3)nn2)C(=O)NCCCOc2cccc3c2C(=O)N(C2CCC(=O)NC2=O)C3=O)CC1` (configuration not stated), the Emax in [9] came out at 78.9%.

With `CNC(=O)C(Cc1cn(-c2ccc(-c3ccc(C#N)cc3)cc2)nn1)NC(=O)C1(c2ccccc2)CCC1` (configuration not stated), the result in data set [8] was inactive.
